Melting point values, as collected for the OPERA models

Data: OPERA 2.9 data sets, kmansouri/OPERA on GitHub.

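These are experimental values that the OPERA curators gathered from public databases to train and test their QSAR models. The files give a single number for a compound and property, which may rest on several reports. Conditions of the individual experiments are not part of the data. A value may pool stereoisomers or salt forms, and the file does not say which form was measured. Some entries may be limits or estimates that an upstream database listed as plain numbers.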

The melting point is given in degrees Celsius.

The entry for CCCCCCCC(=O)NCC(=O)O [Glycine, N-(1-oxooctyl)-] lists MP 110 °C.
The entry for O=C(O)Cc1coc(-c2ccccc2)n1 [(2-phenyl-1,3-oxazol-4-yl)acetic acid] lists MP 149 °C.
The entry for O=C(O)c1ccc(=O)n(Cc2ccccc2Cl)c1 lists MP 183 °C.
The entry for CCCC[OH+][B-](F)(F)F [(1-Butanol)(trifluoro)boron] lists MP -101 °C.
The entry for Cl.O=C(CCN1CCCCC1)c1ccccc1 [3-Piperidinopropiophenone hydrochloride] lists MP 212 °C.
The entry for Cc1cc(O)c2c(c1O)C(=O)C13C(=C(O)C4C(O)C1C1C(O)C3C(O)=C3C(=O)c5c(O)cc(C)c(O)c5C(=O)C341)C2=O (stereo not given) [Luteoskyrin] lists MP 287 °C.
The entry for CCCCCCC(O)CCCCCCCCCCC(=O)OCC(O)CO (stereo not given) [Octadecanoic acid, 12-hydroxy-, 2,3-dihydroxypropyl ester] lists MP 71.5 °C.
The entry for CC(C)(C=NCC1(C)CC(N=CC(C)(C)CN2CCOCC2)CC(C)(C)C1)CN1CCOCC1 (stereo not given) lists MP 45.7 °C.
The entry for CCOC(=O)c1sc(SC)nc1N [Ethyl 4-amino-2-(methylsulfanyl)-1,3-thiazole-5-carboxylate] lists MP 81 °C.
The entry for Cc1ccc(-c2nnc(Cl)c3ccccc23)cc1 [1-chloro-4-(4-methylphenyl)phthalazine] lists MP 146 °C.
The entry for Cc1nonc1N [Furazan, aminomethyl- (8CI)] lists MP 57 °C.
The entry for CC(C)(C)NS(=O)(=O)c1ccc(C(=O)O)cc1 [4-[(tert-butylamino)sulfonyl]benzoic acid] lists MP 183 °C.
The entry for Nc1ccnn1C1CCCCC1 [1-Cyclohexyl-1H-pyrazol-5-amine] lists MP 81 °C.
The entry for S=c1[nH]nc(COc2ccccc2Cl)o1 [5-[(2-Chlorophenoxy)methyl]-1,3,4-oxadiazole-2(3H)-thione] lists MP 136 °C.
The entry for CC(O)CC(C)(C)c1ccccc1 (stereo not given) [Benzenepropanol, .alpha.,.gamma.,.gamma.-trimethyl-] lists MP -59 °C.
The entry for Cc1ccc(-n2nc(C(C)(C)C)cc2N)cc1 [3-tert-Butyl-1-(4-methylphenyl)-1H-pyrazol-5-amine] lists MP 117 °C.
The entry for c1ccc2cc(C3CO3)ccc2c1 (stereo not given) [2-(Naphthalen-2-yl)oxirane] lists MP 58 °C.
The entry for N#Cc1cccc(Cn2ccnc2)c1 [3-[(1H-Imidazol-1-yl)methyl]benzonitrile] lists MP 66 °C.
The entry for COc1cc(N)ccc1NC(C)=O [2-Acetylamino-5-aminoanisole] lists MP 122 °C.
The entry for NCCCOCCOCCO [Ethanol, 2-[2-(3-aminopropoxy)ethoxy]-] lists MP 14 °C.
The entry for Cn1c(Cc2cccs2)n[nH]c1=S [4-methyl-5-(thien-2-ylmethyl)-4H-1,2,4-triazole-3-thiol] lists MP 159 °C.
The entry for COc1ccc(S(N)(=O)=O)cc1OC [3,4-dimethoxybenzenesulfonamide] lists MP 136 °C.
The entry for N[C@@H](CCO)C(=O)O [L-Homoserine] lists MP 203 °C.
The entry for CN[C@@H]1[C@H](O[C@H]2[C@H](O[C@H]3[C@H](O)[C@@H](O)[C@H](NC(=N)N)[C@@H](O)[C@@H]3NC(=N)N)O[C@@H](C)[C@]2(O)C=O)O[C@@H](CO)[C@H](O)[C@H]1O [Streptomycin A] lists MP 12 °C.
The entry for O=C(O)CCC(=O)c1ccc(I)cc1 [4-(4-Iodo-phenyl)-4-oxo-butyric acid] lists MP 176 °C.
The entry for COC(=O)c1cc(N2CCOCC2)ccc1N [Methyl 2-amino-5-(morpholin-4-yl)benzoate] lists MP 107 °C.
The entry for NC(=O)CCNCc1ccccc1 [Propanamide, 3-[(phenylmethyl)amino]-] lists MP 165 °C.
The entry for O=P(O)(O)CCC(F)(F)C(F)(F)C(F)(F)C(F)(F)C(F)(F)C(F)(F)C(F)(F)C(F)(F)F [((Perfluorooctyl)ethyl)phosphonic acid] lists MP 182 °C.
The entry for FC(F)(F)C(F)(F)C(F)(F)C(F)(F)C(F)(F)C(F)(F)c1ccc(-c2ccc(Br)s2)s1 [5-Bromo-5'-(tridecafluorohexyl)-2,2'-bithiophene] lists MP 52.5 °C.
The entry for CCCCC1CCC(C2CCC(CCC)CC2)CC1 (stereo not given) lists MP 97.1 °C.
The entry for Cc1ccccc1C(=O)CC#N [2-METHYLBENZOYLACETONITRILE] lists MP 85 °C.
The entry for CCCOC(=O)C1CCCCC1C(=O)OCCC (stereo not given) [dipropyl cyclohexane-1,2-dicarboxylate] lists MP -42.5 °C.
The entry for CCCCCCCCC(=O)OCC(CC)(COC(=O)CCCCCCCC)COC(=O)CCCCCCCC [Trimethylolpropane trinonanoate] lists MP -36.7 °C.
The entry for CNc1ccc([N+](=O)[O-])cc1C(=O)O [2-(methylamino)-5-nitrobenzoic acid] lists MP 262 °C.
The entry for S=c1nc(-c2ccccc2Br)[nH][nH]1 [5-(2-Bromo-phenyl)-4H-[1,2,4]triazole-3-thiol] lists MP 196 °C.
The entry for O=C(O)C1(c2ccccc2)CCOCC1 [4-phenyltetrahydro-2H-pyran-4-carboxylic acid] lists MP 129 °C.
The entry for COc1ccc(C)cc1NC(C)=O [Acetamide, N-(2-methoxy-5-methylphenyl)-] lists MP 110 °C.
The entry for O=C1N[C@H](C(=O)O)CS1 [Procysteine] lists MP 168 °C.
The entry for CC(CC(=O)[O-])CC(C)(C)C.[K+] (stereo not given) [Hexanoic acid, 3,5,5-trimethyl-, potassium salt (1:1)] lists MP 285 °C.
The entry for CCOc1ccc(Br)cc1S(=O)(=O)Cl [5-bromo-2-ethoxy-benzenesulfonyl Chloride] lists MP 110 °C.
The entry for O=[N+]([O-])c1cc2cccc3ccc4cccc1c4c32 [4-Nitropyrene] lists MP 191 °C.